Data set [1] is described as follows: Terminal half life of the compound at pH 7 in bis-tris buffer by 31P NMR method.
The nature of data set [2]: Half life of the compound at pH 7 in phosphate buffer by 31P NMR method.
Data set [3] is described as follows: Half life of the compound at pH 7.4 by 31P NMR method.
The nature of data set [4]: Half life of the compound at pH 6 by 31P NMR method.
Data set [5] is described as follows: Half life of the compound at pH 9 by 31P NMR method.
Data set [6] can be described thus: Dissociation constant, pKa of the compound by Henderson-Hasselbalch equation.
The nature of data set [7]: Dissociation constant, pKa of the compound at 4 degC.

Regarding `NP(=O)(O)N(CCCl)CCCl`, the beta t1/2 in data set [1] was found to be 50 min. Further, the t1/2 in data set [2] was determined as 48 min; in data set [3], 13 min; in data set [4] it was 100 min; in data set [5] it was 20 min. Also, the pKa in data set [6] turned out to be 4.75; in data set [7], 4.8.

For the origin of these results see ChEMBL document CHEMBL3244178, “31P NMR investigations of phosphoramide mustard: evaluation of pH control over the rate of intramolecular cyclization to an aziridinium ion and the hydrolysis of this reactive alkylator” (1979).
